An excerpt weighted towards active compounds, which were near 2.2% of everything screened.
miR-21 reporter: raises the signal of a miR-21 reporter; 340,000 tested, under 10 active; HeLa miR-21 FLuc reporter, luciferase, 48 h; Potency, µM (highest dose often 38.3 µM), without a hit: top-dose reporter change, positive = more light; active = well fitted rising curve with a large enough effect; inconclusive = small, poorly fitted or top-dose-only effect; inactive = no such curve, though single readings can be large or run the other way;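 also: % of control where 0% means no effect; miR-21 action dims this reporter so a rising signal means less miR-21 action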
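HeLa miR-21-FLuc reporter line, endogenous miR-21; 2000 cells/well in DMEM/10% FBS; compound titration up to ~40uM final, 48 h, 37 degree Celsius; luciferase detection reagent, 15 min lysis, CCD luminescence.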
PI4K2A block: PI4K2A (human) kinase inhibition | 0.13% of 420,000 active | Q9BTU6 | activity change, negative = inhibition, % at 76.9 µM | purified PI4K2A, ADP-Glo luminescence, 1 h; stronger effect = lower value; in the data active = activity change below about -50%; inconclusive = mostly about -30% to -49%;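 note: -100% = wells without enzyme as full effect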
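PI4K2A activity was measured by ADP-Glo luminescence: enzyme (4 ug/mL stock) and phosphatidylinositol (1.2 mM stock) in Tris pH 7.5/MgCl2/EGTA/Triton X-100 buffer were reacted with ATP (300 microM stock) for one hour at ambient temperature.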
Nrf2 block: Nrf2 pathway inhibition; AID 504444; A549 ARE-Fluc reporter, luciferase luminescence, 18-24 h; 2.1% of 360,000 active; Potency, µM (highest dose often 46 µM), for inactives: at the highest dose activity change, negative = inhibition, hits mostly inhibitors; note: potency is the fitted concentration of half-maximal effect; % is set by controls: 0 for no effect and ±100 for the full control effect; nearly all actives have a fitted effect of over 60% in size
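A549 ARE_Fluc cells (5000/well, 5% FBS OPTI-MEM) pre-incubated 2 h, then treated with compounds 18-24 h at 37C/5% CO2 in concentration-response. CellTiter-Fluor viability read first; BugLite luciferase luminescence after 15 min at room temperature gives Nrf2 activity.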
GALK inh: galactokinase (human) inhibition. P51570. Purified GALK, Kinase-Glo residual ATP luminescence. Potency, µM (highest dose often 57.5 µM), for inactives: at the highest dose activity change, negative = inhibition, usual class: inhibitors. 0.007% of 270,000 active; note: potency is the fitted concentration of half-maximal effect; % is set by controls: 0 for no effect and ±100 for the full control effect
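5 nM enzyme, 35 uM ATP, 100 uM galactose, 20 mM HEPES pH8.0, 5 mM MgCl2; 1 h RT; residual ATP by Kinase-Glo Plus luminescence, qHTS format.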
Nrf2 activator: Nrf2 pathway activation; AREc32 ARE-luciferase reporter (MCF7-derived line), luminescence, 24 h; Potency, µM (highest dose often 46.1 µM), inactives show at the top dose activation, hits mostly activators; 0.31% of 410,000 active; AID 624171; note: potency is the fitted concentration of half-maximal effect; % of control where 0% means no effect; nearly all actives have a fitted effect of over 65% in size
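AREc32 cells carrying an ARE-driven firefly luciferase, 1000 cells/well in OPTI-MEM with 5% FBS, dosed after overnight attachment and incubated 24 hr at 37 deg C. Steady-Glo luminescence read after 30 min at RT.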
A549 viability: kills or reduces viability of A549 cells in Nrf2 counter-screen; A549 ARE-Fluc cells, CellTiter-Fluor viability, 18-24 h; Potency, µM (top dose mostly 46 µM), without a hit: at the top dose activity change, negative = cytotoxicity, hits mostly inhibitors; 0.16% of 390,000 active; AID 504648; note: potency is the fitted concentration of half-maximal effect; % is set by controls: 0 for no effect and ±100 for the full control effect
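Cytotoxicity counterscreen: CellTiter-Fluor fluorescence was measured in A549 ARE_Fluc cells after 18-24 h of compound exposure in a concentration series. The subsequent BugLite luminescent read reports ARE-luciferase activity.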
The depositor's hits bear a star. Unless noted, calls come from the whole dose curve; as a rule, active = well fitted curve in the direction sought with a large enough effect; inconclusive = small, poorly fitted or top-dose-only effect, or another doubt; inactive = no such curve, though single readings can be large; an effect the other way counts as inactive or inconclusive.

What do the screens show for `Cc1cccc(-c2ccc3ncnc(NCc4cccs4)c3c2)c1`?
PI4K2A block: 3.4; Nrf2 block: 20.6µM*; Nrf2 activator: -0.8%; A549 viability: -2.7%

Results for FC1(F)Oc2ccc(-c3ccc4ncnc(NCc5cccs5)c4c3)cc2O1 ?
Nrf2 block: 13µM*; A549 viability: -13.5%

Results for COc1ccccc1NC(=O)CN1C(=O)C(c2ccc(F)cc2)=NC12CCCCC2 ?
miR-21 reporter: 28.1%; PI4K2A block: 2.6; Nrf2 block: 16.4µM*; Nrf2 activator: 3.6%; A549 viability: -6.3%

How did O=C(NC1CCCCN(Cc2ccc(OC(F)(F)F)cc2)C1=O)c1cccc(F)c1 (stereo not drawn) do in these assays?
PI4K2A block: 0.2

What do the screens show for `COc1cc2c(O)c3c(c(-c4ccc5c(c4)OCO5)c2cc1OC)C(=O)OC3`?
miR-21 reporter: 18.9%; PI4K2A block: -5.0; Nrf2 block: inconclusive; GALK inh: 2.7%; Nrf2 activator: 5.5%; A549 viability: 18.4µM*

Results for CC(=O)Nc1ccc(Sc2ccc([N+](=O)[O-])o2)cc1 ?
PI4K2A block: 12.2; Nrf2 block: 11.3%; Nrf2 activator: inconclusive; A549 viability: -10.8%

How did CC(C)(C)C(=O)Nc1ccc(Sc2ccc([N+](=O)[O-])cc2)cc1 do in these assays?
miR-21 reporter: 25.6%; PI4K2A block: -7.7; Nrf2 block: 16.4µM*; GALK inh: -4.2%; Nrf2 activator: 4.8%; A549 viability: 0.7%

Results for CC(=O)c1c(C(C)=O)c(C)n(-c2nc(-c3ccc(Br)cc3)c(C)s2)c1C ?
miR-21 reporter: -4.1%; PI4K2A block: 2.8; Nrf2 block: 25.9µM*; GALK inh: -0.2%; Nrf2 activator: -0.3%; A549 viability: inconclusive

How did Cn1c(NC(=O)/C=C\c2ccccc2)cc(=O)n(C)c1=O do in these assays?
miR-21 reporter: -37.6%; PI4K2A block: 2.3; Nrf2 block: inconclusive; GALK inh: -0.9%; Nrf2 activator: 11.2µM*; A549 viability: 2.9%

Results for Cn1c(NC(=O)c2ccc(Br)o2)cc(=O)n(C)c1=O ?
miR-21 reporter: 1.7%; PI4K2A block: 0.4; GALK inh: -2.4%; Nrf2 activator: 11.2µM*; A549 viability: 2.1%

Results for Cn1c(NC(=O)/C=C/c2c(F)cccc2Cl)cc(=O)n(C)c1=O ?
miR-21 reporter: -2.0%; PI4K2A block: -3.0; Nrf2 block: 23.8%; GALK inh: 4.9%; Nrf2 activator: inconclusive; A549 viability: 7.1%

What do the screens show for `C=CCN1C(=O)[C@@H](CC(=O)N2CCN(C(=O)C3CC3)CC2)[C@]2(C(=O)OCC)CCCCC/C=C/12`?
PI4K2A block: -1.3

How did S=c1[nH]nc(Cc2cccs2)n1-c1cccc2ccccc12 do in these assays?
miR-21 reporter: -0.2%; PI4K2A block: -3.1; Nrf2 block: 6.9%; GALK inh: 1.7%; Nrf2 activator: 0.4%; A549 viability: 1.4%

How did S=c1[nH]nc(Cc2cccs2)n1-c1ccccc1Cl do in these assays?
miR-21 reporter: 0.3%; PI4K2A block: -3.0; Nrf2 block: 16.4µM*; GALK inh: -1.7%; Nrf2 activator: -1.2%; A549 viability: 5.9%

What do the screens show for `COc1ccc(CCN(C)C(=O)c2cc(S(=O)(=O)NCc3ccccc3)ccc2C)cc1OC`?
PI4K2A block: 0.6; Nrf2 block: 16.4µM*; Nrf2 activator: 0.6%; A549 viability: -8.6%

Structural class: the entries above containing fluorine.
Results for FC1(F)Oc2ccc(-c3ccc4ncnc(NCc5cccs5)c4c3)cc2O1 ?
Nrf2 block: 13µM*; A549 viability: -13.5%

Results for COc1ccccc1NC(=O)CN1C(=O)C(c2ccc(F)cc2)=NC12CCCCC2 ?
miR-21 reporter: 28.1%; PI4K2A block: 2.6; Nrf2 block: 16.4µM*; Nrf2 activator: 3.6%; A549 viability: -6.3%

How did O=C(NC1CCCCN(Cc2ccc(OC(F)(F)F)cc2)C1=O)c1cccc(F)c1 (stereo not drawn) do in these assays?
PI4K2A block: 0.2

Results for Cn1c(NC(=O)/C=C/c2c(F)cccc2Cl)cc(=O)n(C)c1=O ?
miR-21 reporter: -2.0%; PI4K2A block: -3.0; Nrf2 block: 23.8%; GALK inh: 4.9%; Nrf2 activator: inconclusive; A549 viability: 7.1%

(further entries)
How did COC(=O)c1nc(Nc2cc(F)cc(F)c2)nc(NC2CCCC2)n1 do in these assays?
Nrf2 block: 17.2%; A549 viability: 1.4%

How did COc1ccc(CN2C[C@]3(C=C(C)Cn4c(=O)n(-c5ccccc5)c(=O)n43)N(C(=O)OCc3ccccc3)C2=NC(=O)c2ccccc2)c(OC)c1 do in these assays?
PI4K2A block: -0.5

What do the screens show for `Cc1ccc(S(=O)(=O)N2CCC(c3nc4ccccc4o3)CC2)s1`?
PI4K2A block: -3.8

What do the screens show for `Oc1ccc2ccccc2c1/C=N/Nc1nnc(-c2ncc[nH]2)c2ccccc12`?
miR-21 reporter: -3.0%; PI4K2A block: 4.3; Nrf2 block: 5.17µM*; GALK inh: 0.5%; Nrf2 activator: -0.8%

What do the screens show for `C=Cc1ccc(C(=O)Nc2nnc(-c3cccnc3)s2)cc1`?
PI4K2A block: -5.4

How did COc1ccc(OC)c(CCNC(=O)C(=O)Nc2ccc3nc4n(c(=O)c3c2)CCCCC4)c1 do in these assays?
miR-21 reporter: 4.6%; PI4K2A block: 4.4; Nrf2 block: 20.6µM*; Nrf2 activator: -0.6%; A549 viability: -3.2%

What do the screens show for `Cc1cc(C)cc(N=Cc2ccc([N+](=O)[O-])s2)c1`?
miR-21 reporter: 27.8%; PI4K2A block: -12.6; Nrf2 block: -5.5%; Nrf2 activator: inconclusive; A549 viability: 0.6%

Results for Cc1ccc(NC(=S)N/N=C/c2ccc([N+](=O)[O-])s2)cc1 ?
miR-21 reporter: 20.2%; PI4K2A block: -5.3; Nrf2 block: inconclusive; Nrf2 activator: -1.3%; A549 viability: 23.1µM*

What do the screens show for `Fc1ccc(N2CCN(c3ncnc4c3nnn4Cc3ccccc3Cl)CC2)cc1`?
PI4K2A block: 2.4; Nrf2 block: 13µM*; Nrf2 activator: -0.9%; A549 viability: 2.1%

How did FC(F)(F)c1ccc(N2CCN(c3ncnc4c3nnn4Cc3ccccc3Cl)CC2)cc1 do in these assays?
miR-21 reporter: -6.9%; PI4K2A block: -4.6; Nrf2 block: inconclusive; GALK inh: -1.6%; Nrf2 activator: -0.3%; A549 viability: -3.3%

How did CC(C)NC(=O)c1ccc2c3n(nc2c1)-c1ccccc1CO3 do in these assays?
miR-21 reporter: 22.2%; PI4K2A block: -62.6*; Nrf2 block: inconclusive; GALK inh: 8.3%; Nrf2 activator: -1.2%; A549 viability: 1.9%

Results for CC(C)[C@@H](CO)NC(=O)c1ccc2c3n(nc2c1)-c1ccccc1CO3 ?
miR-21 reporter: -6.6%; PI4K2A block: -20.2; Nrf2 block: -20.0%; GALK inh: 6.1%; Nrf2 activator: -1.4%; A549 viability: 1.0%

What do the screens show for `Cn1c(N)c(C(=O)COC(=O)c2cc(C(F)(F)F)nc3ccccc23)c(=O)n(Cc2ccccc2)c1=O`?
miR-21 reporter: -5.3%; PI4K2A block: 0.1; Nrf2 block: 20.6µM*; Nrf2 activator: -0.8%; A549 viability: 13.4%

Results for CC(C)Cn1c(N)c(C(=O)COC(=O)c2ccccc2Cl)c(=O)n(C)c1=O ?
miR-21 reporter: 8.5%; PI4K2A block: 8.1; Nrf2 block: -9.2%; GALK inh: -1.2%; Nrf2 activator: -0.5%; A549 viability: 2.8%
